{
  "sequences": {"note": "Protein sequences, listed by entry. Tags and fused reporters are not part of them.", "UniProt P32245, whole entry": "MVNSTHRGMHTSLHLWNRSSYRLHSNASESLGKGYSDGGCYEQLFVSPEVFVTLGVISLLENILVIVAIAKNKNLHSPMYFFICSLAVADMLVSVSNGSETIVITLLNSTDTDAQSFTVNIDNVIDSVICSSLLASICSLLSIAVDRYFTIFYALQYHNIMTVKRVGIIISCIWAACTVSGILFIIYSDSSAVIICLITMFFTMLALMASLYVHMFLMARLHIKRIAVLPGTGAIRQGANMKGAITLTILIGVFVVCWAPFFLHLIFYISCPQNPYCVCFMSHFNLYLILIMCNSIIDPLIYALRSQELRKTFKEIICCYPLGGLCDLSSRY"},
  "source": "PubChem BioAssay AID540295",
  "about": "(The Scripps Research Institute Molecular Screening Center, 2011)",
  "note": "The list shows a part of the results, in another mix than the full data. Some of these compounds have results that are not shown, active ones among them. Activity calls are given as the source filed them.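 Rule for the calls: active = inhibition above its plate's cutoff, the mean of tested wells on that plate plus 3 SD (cut at about 29% in these data); inactive = the rest.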",
  "data": [
    {"molecular_target": "Melanocortin receptor 4 (Homo sapiens) (UniProt P32245)", "assay": "MC4R antagonists of cAMP signaling, primary screen, cell-based, TR-FRET, antagonist arm of biased-ligand search (AID 540295);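 note: 0% = Melanotan II alone and 100% = Melanotan II plus saturating MCL0020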", "settings": "MC4R-expressing cells, MTII-stimulated cAMP, LANCE TR-FRET; at 6.5 µM; active compounds read high", "values": [
      {"smiles": "COc1ccc(Br)c(C(=O)NCC2(N3CCCCC3)CCCCC2)c1", "inhibition": "inactive: -0.22%"},
      {"smiles": "C=C(C)C#CC(O)(C(=O)OC1CCN(C)CC1)c1ccccc1", "note": "(stereo unspecified)", "inhibition": "inactive: -4.67%"},
      {"smiles": "CN(C)c1cccc(C(=O)NCC2(N(C)C)CCCCC2)c1", "inhibition": "inactive: 8.88%"},
      {"smiles": "O=C(OCCN1CCCC1)C(O)(c1ccccc1)c1ccccc1", "inhibition": "inactive: -1.99%"},
      {"smiles": "CC(C)Oc1ccc(C(=O)NCC2(N(C)C)CCCCC2)cc1", "inhibition": "inactive: -2.46%"},
      {"smiles": "O=C(OC1CN2CCC1CC2)C(CO)(c1ccccc1)c1ccccc1", "note": "(stereo unspecified)", "inhibition": "inactive: 8.9%"},
      {"smiles": "COc1ccc(Cl)cc1C(=O)NCC1(N(C)C)CCCCC1", "inhibition": "inactive: 4.35%"},
      {"smiles": "COc1cccc(C(=O)NCC2(N3CCCCC3)CCCCC2)c1", "inhibition": "inactive: 3.35%"},
      {"smiles": "O=C(NCC1(N2CCCCC2)CCCCC1)c1cccc(Cl)c1", "inhibition": "inactive: 5.16%"},
      {"smiles": "CN(C)C1(CNC(=O)c2ccc(Br)cc2)CCCCC1", "inhibition": "inactive: 5.08%"},
      {"smiles": "COc1cc(C(=O)NCC2(N(C)C)CCCCC2)c([N+](=O)[O-])cc1OC", "inhibition": "inactive: -4.34%"},
      {"smiles": "O=C(NCC1(N2CCCCC2)CCCCC1)c1cc(F)c(F)cc1Cl", "inhibition": "inactive: -1.24%"},
      {"smiles": "C=CCN1CCN(CCOC(=O)C(O)(c2ccccc2)c2ccccc2)CC1", "inhibition": "inactive: 15.5%"},
      {"smiles": "O=C(NCC1(N2CCCCC2)CCCCC1)c1cccc(Br)c1", "inhibition": "inactive: -5.05%"},
      {"smiles": "CCN1CCCC(OC(=O)C2(O)c3ccccc3C=Cc3ccccc32)C1", "note": "(stereo unspecified)", "inhibition": "inactive: -1.63%"},
      {"smiles": "Cc1cc(C(=O)NCC2(N3CCCCC3)CCCCC2)ccc1[N+](=O)[O-]", "inhibition": "inactive: 1.82%"},
      {"smiles": "COc1ccc(C(=O)NCC2(N(C)C)CCCCC2)cc1", "inhibition": "inactive: 7.9%"},
      {"smiles": "CN(C)c1ccc(C(=O)NCC2(N(C)C)CCCCC2)cc1", "inhibition": "inactive: -1.51%"},
      {"smiles": "CN(C)C1CCCC1OC(=O)C(O)(c1ccccc1)c1ccccc1", "note": "(stereo unspecified)", "inhibition": "inactive: 17.8%"},
      {"smiles": "Cc1ccccc1C(=O)NCC1(N2CCCCC2)CCCCC1", "inhibition": "inactive: 4.44%"},
      {"smiles": "CC(C)N1C(=O)CC2(CCN(CCOC(=O)C(O)(c3ccccc3)c3ccccc3)CC2)C1=O", "inhibition": "inactive: 10.5%"},
      {"smiles": "COc1cc(SC)ccc1C(=O)NCC1(N(C)C)CCCCC1", "inhibition": "inactive: 0.46%"},
      {"smiles": "CCN(CC)CC(C)C(C)OC(=O)C(O)(c1ccccc1)c1ccccc1", "note": "(stereo unspecified)", "inhibition": "inactive: 5.68%"},
      {"smiles": "Cc1ccc(C(=O)NCC2(N3CCCCC3)CCCCC2)cc1", "inhibition": "inactive: 9.8%"},
      {"smiles": "O=C(NCC1(N2CCCCC2)CCCCC1)c1cc([N+](=O)[O-])ccc1Cl", "inhibition": "inactive: 8%"},
      {"smiles": "CN1[C@@H]2CC[C@H]1CC(OC(=O)C(O)(c1ccccc1)c1ccccc1)C2", "note": "(stereo partly specified)", "inhibition": "inactive: 12.5%"}
    ]}
  ]
}
